Assays:
human ERα = human ERα (Homo sapiens, UniProt P03372); settings: 1 μM; strain cwp1Δcwp2Δ
human ERβ = human ERβ (Homo sapiens, UniProt Q92731); settings: 1 μM; strain cwp1Δcwp2Δ
human PR = target: T1, human PR (Homo sapiens, UniProt P06401); test: PR antagonist yeast reporter gene assay (competition with PS at EC50); format: cell-based
T1 sequence (P06401 1-933): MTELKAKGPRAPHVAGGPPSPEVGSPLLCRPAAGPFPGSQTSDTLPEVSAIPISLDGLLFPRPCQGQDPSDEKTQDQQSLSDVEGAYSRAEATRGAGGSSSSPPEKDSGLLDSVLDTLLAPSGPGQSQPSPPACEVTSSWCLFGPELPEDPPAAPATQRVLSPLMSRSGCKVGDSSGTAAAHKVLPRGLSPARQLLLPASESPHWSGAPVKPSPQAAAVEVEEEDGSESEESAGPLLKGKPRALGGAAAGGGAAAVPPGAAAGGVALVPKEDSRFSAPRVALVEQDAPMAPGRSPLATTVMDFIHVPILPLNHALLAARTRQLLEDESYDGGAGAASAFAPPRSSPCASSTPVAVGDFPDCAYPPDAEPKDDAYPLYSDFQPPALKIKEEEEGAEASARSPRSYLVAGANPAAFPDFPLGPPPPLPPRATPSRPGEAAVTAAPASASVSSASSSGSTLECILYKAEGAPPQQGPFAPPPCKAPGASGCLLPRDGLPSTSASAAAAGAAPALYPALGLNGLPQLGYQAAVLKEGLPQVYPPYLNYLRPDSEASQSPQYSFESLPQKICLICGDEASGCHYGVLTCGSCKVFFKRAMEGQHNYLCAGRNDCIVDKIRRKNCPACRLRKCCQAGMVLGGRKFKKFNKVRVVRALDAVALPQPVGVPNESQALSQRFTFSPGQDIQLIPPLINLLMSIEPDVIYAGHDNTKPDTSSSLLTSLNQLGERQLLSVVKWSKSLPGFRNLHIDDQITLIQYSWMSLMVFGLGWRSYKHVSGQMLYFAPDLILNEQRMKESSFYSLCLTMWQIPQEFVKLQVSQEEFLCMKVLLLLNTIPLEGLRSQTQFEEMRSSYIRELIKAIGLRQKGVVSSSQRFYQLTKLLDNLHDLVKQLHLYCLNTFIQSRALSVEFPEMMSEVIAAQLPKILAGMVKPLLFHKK

Chains of the proteins cited; added tags and fusions are not shown.
UniProt P03372, whole entry: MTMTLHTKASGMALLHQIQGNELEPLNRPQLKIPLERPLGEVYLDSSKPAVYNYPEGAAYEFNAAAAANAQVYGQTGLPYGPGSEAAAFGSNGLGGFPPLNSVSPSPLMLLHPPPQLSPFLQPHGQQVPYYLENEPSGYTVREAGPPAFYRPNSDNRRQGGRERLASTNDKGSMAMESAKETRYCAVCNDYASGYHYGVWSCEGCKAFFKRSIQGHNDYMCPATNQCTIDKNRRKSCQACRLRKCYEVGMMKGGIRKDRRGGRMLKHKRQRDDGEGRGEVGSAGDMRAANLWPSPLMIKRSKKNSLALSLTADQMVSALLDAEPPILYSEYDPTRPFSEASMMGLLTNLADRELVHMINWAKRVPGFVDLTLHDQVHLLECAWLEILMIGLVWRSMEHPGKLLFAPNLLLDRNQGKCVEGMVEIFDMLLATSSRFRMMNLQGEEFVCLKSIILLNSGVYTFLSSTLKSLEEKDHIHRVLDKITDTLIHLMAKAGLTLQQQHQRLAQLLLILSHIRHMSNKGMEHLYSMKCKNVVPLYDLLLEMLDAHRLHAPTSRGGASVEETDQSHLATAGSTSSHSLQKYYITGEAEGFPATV
UniProt Q92731, whole entry: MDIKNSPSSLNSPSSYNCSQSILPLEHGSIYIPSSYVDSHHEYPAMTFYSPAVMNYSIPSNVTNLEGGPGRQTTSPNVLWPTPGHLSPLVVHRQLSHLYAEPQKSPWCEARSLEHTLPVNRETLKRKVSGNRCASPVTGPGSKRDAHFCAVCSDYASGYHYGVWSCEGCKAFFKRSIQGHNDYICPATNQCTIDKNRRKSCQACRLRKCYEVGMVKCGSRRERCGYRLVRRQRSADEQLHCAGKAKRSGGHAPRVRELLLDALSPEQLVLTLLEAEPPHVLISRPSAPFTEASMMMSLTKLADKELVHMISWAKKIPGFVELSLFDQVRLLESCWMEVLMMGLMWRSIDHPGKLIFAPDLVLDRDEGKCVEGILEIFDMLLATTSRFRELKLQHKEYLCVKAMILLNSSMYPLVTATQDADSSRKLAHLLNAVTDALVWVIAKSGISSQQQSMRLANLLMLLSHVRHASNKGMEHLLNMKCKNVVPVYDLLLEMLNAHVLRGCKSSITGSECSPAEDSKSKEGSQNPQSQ

SMILES	basal β-gal expression (inverse agonist activity) (human ERα)	basal β-gal expression (inverse agonist activity) (human ERβ)	Maximum inhibition (human PR; strain cwp1Δcwp2Δ) [%]	Maximum inhibition (human PR; strain cwp1Δpdr5Δ) [%]
C[C@]12CC[C@@H]3c4ccc(O)cc4C[C@@H](CCCCCCCCC[S+]([O-])CCCC(F)(F)C(F)(F)F)[C@H]3[C@@H]1CC[C@@H]2O (stereo partly shown) [ICI, ICI 182, 780]	strongly inhibited	strongly inhibited	–	–
CC#C[C@]1(O)CC[C@H]2[C@@H]3CCC4=CC(=O)CCC4=C3[C@@H](c3ccc(N(C)C)cc3)C[C@@]21C [Mif, mifepristone]	–	–	84.6	87.2
